Results taken from ChEMBL document CHEMBL1130389, “Synthesis and ligand binding studies of 4'-iodobenzoyl esters of tropanes and piperidines at the dopamine transporter” (J Med Chem, 1997).

Chains of the proteins cited; added tags and fusions are not shown.
UniProt P23977, whole entry: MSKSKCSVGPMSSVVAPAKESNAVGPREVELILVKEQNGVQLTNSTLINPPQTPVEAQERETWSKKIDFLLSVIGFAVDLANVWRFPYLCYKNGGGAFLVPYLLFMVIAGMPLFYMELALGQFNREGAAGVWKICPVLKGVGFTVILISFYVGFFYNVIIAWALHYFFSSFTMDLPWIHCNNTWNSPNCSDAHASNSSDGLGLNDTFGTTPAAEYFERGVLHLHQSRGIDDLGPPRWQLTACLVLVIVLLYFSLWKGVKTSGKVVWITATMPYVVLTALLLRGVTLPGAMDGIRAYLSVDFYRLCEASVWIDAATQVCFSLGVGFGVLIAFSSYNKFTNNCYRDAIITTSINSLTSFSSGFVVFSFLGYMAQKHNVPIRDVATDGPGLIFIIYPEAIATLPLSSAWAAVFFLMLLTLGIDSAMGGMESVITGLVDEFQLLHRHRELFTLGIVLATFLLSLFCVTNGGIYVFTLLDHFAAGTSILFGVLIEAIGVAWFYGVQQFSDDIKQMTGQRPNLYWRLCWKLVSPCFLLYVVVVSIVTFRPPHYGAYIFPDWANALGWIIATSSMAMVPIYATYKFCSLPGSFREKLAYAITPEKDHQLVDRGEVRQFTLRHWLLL

Target: Sodium-dependent dopamine transporter (Rattus norvegicus, UniProt P23977)
Experiment: Compound was tested for inhibitory activity to displace [3H]WIN-35428 at dopamine transporter in Rat Striatal Membranes.

COC(=O)[C@H]1[C@@H](OC(=O)c2ccc(I)cc2)C[C@H]2CC[C@H]1N2C showed an IC50 of 2520 nM.
